Reference: patent publication US9120722B1, “Optically active valine complex and a method for producing the same” (Wellman Biosciences Co. Ltd., priority 2014, dated 2015)

How the values were obtained:
[1] = 25° C.

## L-valine N-benzoyl-L-alanine complex
acetone
  Solubility in acetone: insoluble
chloroform
  Solubility in chloroform: insoluble
ethanol
  Solubility in ethanol: insoluble
methanol
  Solubility in methanol: Slightly soluble
toluene
  Solubility in toluene: insoluble
[1]
  Solubility in water: 1.6 % by weight
